Data from ChEMBL document CHEMBL2390816, “Structure-based optimization of oxadiazole-based GSK-3 inhibitors” (Eur J Med Chem, 2013).

Amino acid sequences for entries named in this document (tags omitted). A change or cut given only in a name is not applied to a line headed by its entry.
UniProt P49841: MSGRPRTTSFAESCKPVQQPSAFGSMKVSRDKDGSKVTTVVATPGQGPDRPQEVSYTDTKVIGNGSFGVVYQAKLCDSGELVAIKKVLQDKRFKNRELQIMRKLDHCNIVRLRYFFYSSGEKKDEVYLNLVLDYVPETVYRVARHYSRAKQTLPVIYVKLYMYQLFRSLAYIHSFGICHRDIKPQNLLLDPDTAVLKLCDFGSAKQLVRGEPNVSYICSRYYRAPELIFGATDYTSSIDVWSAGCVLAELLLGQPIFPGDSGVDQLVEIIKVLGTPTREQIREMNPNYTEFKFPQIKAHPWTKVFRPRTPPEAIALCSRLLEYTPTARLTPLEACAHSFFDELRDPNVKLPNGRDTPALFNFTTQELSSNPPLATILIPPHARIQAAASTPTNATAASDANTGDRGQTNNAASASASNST

biological target: Glycogen synthase kinase-3 beta (Homo sapiens, UniProt P49841); experiment: Inhibition of human recombinant GSK3beta using pIRS-1 (RREGGMSRPAS(p)VDG) as substrate assessed as residual activity at 10 uM after 15 mins in presence of 32P[gamma-ATP]

Row | SMILES | Activity [%]
1 | COc1ccc(-c2nnc(SCc3cccc(OC)c3)o2)cc1 | > 50
2 | COc1cccc(CSc2nnc(-c3ccc([N+](=O)[O-])cc3)o2)c1 | > 50
3 | N#Cc1ccc(/C=N/NC(=O)c2ccncc2)cc1 | > 50
4 | O=C(N/N=C/c1ccccc1)c1ccncc1 | > 50
5 | c1ccc(CSc2nnc(-c3ccccc3)o2)cc1 | > 50
6 | COc1ccc(-c2nnc(SCc3ccccc3)o2)cc1 | > 50
7 | COc1ccc(-c2nnc(SCc3cccc(C#N)c3)o2)cc1 | > 50
8 | CCc1ccc(/C=N/NC(=O)c2ccncc2)cc1 | > 50
9 | N#Cc1ccc(-c2nnc(SCc3ccc(-c4ccccc4C#N)cc3)o2)cc1 | > 50
10 | N#Cc1cccc(CSc2nnc(-c3ccc([N+](=O)[O-])cc3)o2)c1 | > 50
11 | COc1ccc(-c2nnc(SCc3ccc(-c4ccccc4C#N)cc3)o2)cc1 | > 50
12 | COc1cccc(CSc2nnc(-c3ccccc3)o2)c1 | > 50
13 | O=[N+]([O-])c1ccc(-c2nnc(SCc3ccccc3)o2)cc1 | > 50
14 | N#Cc1cccc(CSc2nnc(-c3ccccc3)o2)c1 | > 50
15 | COc1cccc(CSc2nnc(-c3ccc(C#N)cc3)o2)c1 | > 50
16 | N#Cc1ccccc1-c1ccc(CSc2nnc(-c3ccc([N+](=O)[O-])cc3)o2)cc1 | > 50
17 | N#Cc1ccc(-c2nnc(SCc3ccccc3)o2)cc1 | > 50
18 | N#Cc1ccccc1-c1ccc(CSc2nnc(-c3ccccc3)o2)cc1 | > 50
19 | COc1ccc(/C=N/NC(=O)c2ccncc2)cc1 | > 50
20 | N#Cc1ccc(-c2nnc(SCc3cccc(C#N)c3)o2)cc1 | > 50
